Values quoted from earlier work as cited in patent publication US12552793B2, “Purine derivative and medical use thereof” (KANGBAIDA (SICHUAN) BIOTECHNOLOGY CO., LTD., priority 2019, dated 2026).

Biological target: DNA-PK (Homo sapiens (Human), UniProt P78527)
Conditions: read-out: IC50 (DNA-PK); literature value (Sarkaria et al., 1998); cited from earlier work

COC[C@H]1OC(=O)c2coc3c2[C@@]1(C)C1=C(C3=O)[C@@H]2CCC(=O)[C@@]2(C)C[C@H]1OC(C)=O [Wortmannin]
IC50: ~15 nM
